Laboratory results taken from patent publication US9573956B2, “Compounds as dual inhibitors of phosphodiesterases and histone deacetylases” (FUNDACIÓN PARA LA INVESTIGACIÓN MÉDICA APLICADA, priority 2013, dated 2017).

By UniProt entry, the sequences of proteins in these tests, tags left out. Residues count along the entry.
UniProt P27815, 1-647 isoform P27815-4: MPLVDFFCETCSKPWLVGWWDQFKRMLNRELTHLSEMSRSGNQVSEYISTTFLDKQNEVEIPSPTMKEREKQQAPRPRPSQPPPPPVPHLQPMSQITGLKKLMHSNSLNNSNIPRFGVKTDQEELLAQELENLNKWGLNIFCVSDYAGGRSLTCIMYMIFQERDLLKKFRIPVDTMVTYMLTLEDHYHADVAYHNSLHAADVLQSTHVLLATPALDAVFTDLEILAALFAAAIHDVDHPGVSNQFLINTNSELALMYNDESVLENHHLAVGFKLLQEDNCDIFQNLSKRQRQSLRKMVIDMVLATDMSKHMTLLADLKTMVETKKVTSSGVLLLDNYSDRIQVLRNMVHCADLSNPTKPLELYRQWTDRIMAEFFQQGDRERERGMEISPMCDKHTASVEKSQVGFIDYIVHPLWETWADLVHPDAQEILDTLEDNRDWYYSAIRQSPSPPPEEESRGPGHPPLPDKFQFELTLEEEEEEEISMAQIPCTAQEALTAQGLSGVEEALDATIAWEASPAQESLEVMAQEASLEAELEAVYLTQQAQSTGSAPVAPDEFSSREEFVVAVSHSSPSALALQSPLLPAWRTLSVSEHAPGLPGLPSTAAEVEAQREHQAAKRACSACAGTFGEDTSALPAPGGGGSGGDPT

Target: T1, PDE4A1 (Homo sapiens, UniProt P27815)
T1 construct: they are full-length with N-terminal GST tag; GST (N); purchased BPS Biosciences 60040; host or cells: baculovirus infected Sf9 cells
Experiment: PDE enzyme activity assay (HTRF cGMP), PDE4A1
Format: biochemical
Settings: recombinant enzyme; read-out: PDE4A1 inhibition (IC50)

Q: For `CN1CC(=O)N2[C@H](c3ccc4c(c3)OCO4)c3[nH]c4ccccc4c3C[C@@H]2C1=O` [Tadalafil, reference compound], which IC50 is on record?
A: > 10 µM
